Assay results: PMC10262665 (Science (New York, N.Y.), 2023)

Columns and labels:
H9c2 rat cardiomyoblasts [1] = experiment: 13C-lactate metabolic tracing into pyruvate; format: cell-based; conditions: dimethylated fatty acid analogs
H9c2 rat cardiomyoblasts [2] = experiment: 13C-glucose metabolic tracing into lactate; format: cell-based; conditions: dimethylated fatty acid analogs

CCCCCCCCCCCCCCC(C)(C)C(=O)O [DiMePal, 2,2-dimethyl-palmitate, reference compound]
13C-lactate tracing (H9c2 rat cardiomyoblasts [1]): inhibited | 13C-glucose tracing (H9c2 rat cardiomyoblasts [2]): inhibited
